Data: ChEMBL document CHEMBL1153945 (Bioorg Med Chem, 2009)

Sequences of proteins named here, by UniProt entry; tags and fusion partners are left off.
UniProt P29476, whole entry: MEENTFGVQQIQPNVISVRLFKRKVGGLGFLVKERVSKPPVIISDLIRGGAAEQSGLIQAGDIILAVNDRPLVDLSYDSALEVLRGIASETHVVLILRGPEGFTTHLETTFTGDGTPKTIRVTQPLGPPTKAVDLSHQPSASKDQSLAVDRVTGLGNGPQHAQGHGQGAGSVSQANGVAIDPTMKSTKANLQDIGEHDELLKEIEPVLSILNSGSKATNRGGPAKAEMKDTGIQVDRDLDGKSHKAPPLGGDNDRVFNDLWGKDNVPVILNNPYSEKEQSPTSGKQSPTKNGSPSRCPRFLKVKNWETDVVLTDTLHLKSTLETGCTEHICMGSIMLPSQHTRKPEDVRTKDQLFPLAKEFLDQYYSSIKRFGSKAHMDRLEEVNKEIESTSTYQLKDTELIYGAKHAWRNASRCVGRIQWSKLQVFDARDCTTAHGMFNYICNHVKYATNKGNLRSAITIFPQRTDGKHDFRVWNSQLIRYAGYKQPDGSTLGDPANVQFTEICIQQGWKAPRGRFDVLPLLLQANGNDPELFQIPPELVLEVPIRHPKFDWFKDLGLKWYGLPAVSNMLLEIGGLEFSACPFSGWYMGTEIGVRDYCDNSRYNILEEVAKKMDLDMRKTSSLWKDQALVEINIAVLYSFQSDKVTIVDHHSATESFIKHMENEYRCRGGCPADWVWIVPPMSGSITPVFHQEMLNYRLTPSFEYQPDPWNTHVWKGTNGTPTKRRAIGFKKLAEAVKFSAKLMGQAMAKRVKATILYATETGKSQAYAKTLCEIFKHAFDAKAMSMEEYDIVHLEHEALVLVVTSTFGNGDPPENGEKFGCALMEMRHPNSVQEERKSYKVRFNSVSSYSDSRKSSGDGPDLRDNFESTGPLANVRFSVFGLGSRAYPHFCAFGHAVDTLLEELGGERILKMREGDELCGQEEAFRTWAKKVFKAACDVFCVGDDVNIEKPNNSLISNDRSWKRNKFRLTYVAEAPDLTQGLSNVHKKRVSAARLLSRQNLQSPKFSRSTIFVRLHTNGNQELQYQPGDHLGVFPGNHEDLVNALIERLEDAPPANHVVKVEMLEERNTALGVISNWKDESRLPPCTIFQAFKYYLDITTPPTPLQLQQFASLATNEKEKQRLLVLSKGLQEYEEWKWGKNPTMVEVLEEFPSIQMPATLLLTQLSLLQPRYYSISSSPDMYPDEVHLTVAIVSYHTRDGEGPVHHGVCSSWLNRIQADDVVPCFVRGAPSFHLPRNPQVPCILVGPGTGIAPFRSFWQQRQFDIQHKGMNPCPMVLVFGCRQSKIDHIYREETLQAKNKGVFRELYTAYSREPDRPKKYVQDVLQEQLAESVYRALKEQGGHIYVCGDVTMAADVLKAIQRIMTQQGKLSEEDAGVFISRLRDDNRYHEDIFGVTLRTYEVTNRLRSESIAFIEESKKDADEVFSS

Tests used:
[1] = target: T1, Nitric oxide synthase, inducible (Mus musculus, UniProt P29477)
T1 sequence (P29477 whole entry): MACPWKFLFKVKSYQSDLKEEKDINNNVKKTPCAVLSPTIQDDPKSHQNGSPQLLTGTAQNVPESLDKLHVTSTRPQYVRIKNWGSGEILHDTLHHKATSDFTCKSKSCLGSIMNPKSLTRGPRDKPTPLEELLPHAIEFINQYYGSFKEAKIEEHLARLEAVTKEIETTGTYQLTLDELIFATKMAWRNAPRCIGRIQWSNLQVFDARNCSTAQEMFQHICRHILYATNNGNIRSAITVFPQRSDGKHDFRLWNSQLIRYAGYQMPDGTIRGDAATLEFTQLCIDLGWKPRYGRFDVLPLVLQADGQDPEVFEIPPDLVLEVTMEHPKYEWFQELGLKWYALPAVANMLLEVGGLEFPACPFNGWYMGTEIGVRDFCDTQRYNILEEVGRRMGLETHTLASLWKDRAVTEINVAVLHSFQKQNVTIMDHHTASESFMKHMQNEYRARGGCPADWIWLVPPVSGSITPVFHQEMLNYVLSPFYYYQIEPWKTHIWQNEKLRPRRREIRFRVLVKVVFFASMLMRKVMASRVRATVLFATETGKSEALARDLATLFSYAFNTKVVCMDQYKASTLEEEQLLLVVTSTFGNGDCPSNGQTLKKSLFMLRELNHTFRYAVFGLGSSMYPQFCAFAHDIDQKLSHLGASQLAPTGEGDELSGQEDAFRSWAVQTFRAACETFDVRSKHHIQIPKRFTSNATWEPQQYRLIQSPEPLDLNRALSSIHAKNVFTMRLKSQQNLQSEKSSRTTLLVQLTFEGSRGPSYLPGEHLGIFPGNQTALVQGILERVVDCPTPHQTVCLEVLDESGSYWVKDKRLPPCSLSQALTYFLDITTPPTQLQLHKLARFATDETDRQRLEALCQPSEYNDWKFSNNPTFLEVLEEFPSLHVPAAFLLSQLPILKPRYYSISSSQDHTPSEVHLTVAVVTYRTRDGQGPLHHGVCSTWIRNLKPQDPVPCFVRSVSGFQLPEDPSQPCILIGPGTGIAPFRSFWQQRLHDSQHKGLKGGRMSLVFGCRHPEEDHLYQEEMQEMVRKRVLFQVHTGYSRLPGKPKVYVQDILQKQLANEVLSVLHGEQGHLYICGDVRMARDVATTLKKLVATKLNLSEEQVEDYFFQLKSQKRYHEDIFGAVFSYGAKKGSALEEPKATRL

Nitric oxide synthase 3 = target: T2, Nitric oxide synthase 3 (Bos taurus, UniProt P29473)
T2 sequence (P29473 whole entry): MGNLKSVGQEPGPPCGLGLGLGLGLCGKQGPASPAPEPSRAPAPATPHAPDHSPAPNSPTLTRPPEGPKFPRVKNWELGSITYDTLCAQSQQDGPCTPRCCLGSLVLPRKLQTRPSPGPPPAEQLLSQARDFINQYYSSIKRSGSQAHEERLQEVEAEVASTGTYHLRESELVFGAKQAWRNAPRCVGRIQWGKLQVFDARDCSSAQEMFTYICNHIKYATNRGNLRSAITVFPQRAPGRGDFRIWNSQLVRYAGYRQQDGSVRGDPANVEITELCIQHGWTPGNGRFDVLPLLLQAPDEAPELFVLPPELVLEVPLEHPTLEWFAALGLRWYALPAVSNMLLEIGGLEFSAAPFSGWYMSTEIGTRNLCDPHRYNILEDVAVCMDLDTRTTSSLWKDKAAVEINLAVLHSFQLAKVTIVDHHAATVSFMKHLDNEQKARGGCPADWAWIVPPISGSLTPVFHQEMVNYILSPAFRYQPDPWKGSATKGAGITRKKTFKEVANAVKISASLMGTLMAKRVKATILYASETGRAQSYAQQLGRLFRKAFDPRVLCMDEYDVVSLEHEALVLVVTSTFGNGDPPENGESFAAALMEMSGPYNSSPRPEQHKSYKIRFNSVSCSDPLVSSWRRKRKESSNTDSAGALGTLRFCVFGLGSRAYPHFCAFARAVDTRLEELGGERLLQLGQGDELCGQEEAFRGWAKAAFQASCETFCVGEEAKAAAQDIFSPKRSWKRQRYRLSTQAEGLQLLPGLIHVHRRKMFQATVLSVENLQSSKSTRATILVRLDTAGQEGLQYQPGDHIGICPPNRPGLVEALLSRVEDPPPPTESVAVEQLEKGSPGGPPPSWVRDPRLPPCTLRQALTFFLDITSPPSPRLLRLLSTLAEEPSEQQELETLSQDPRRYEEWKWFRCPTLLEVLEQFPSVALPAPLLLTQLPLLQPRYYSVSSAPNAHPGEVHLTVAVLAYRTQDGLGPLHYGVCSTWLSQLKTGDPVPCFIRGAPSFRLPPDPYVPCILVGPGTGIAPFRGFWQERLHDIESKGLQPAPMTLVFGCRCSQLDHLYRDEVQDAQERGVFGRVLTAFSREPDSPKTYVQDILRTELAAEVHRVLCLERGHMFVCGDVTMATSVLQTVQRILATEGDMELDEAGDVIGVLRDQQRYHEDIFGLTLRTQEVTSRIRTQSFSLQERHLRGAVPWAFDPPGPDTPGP

Nitric oxide synthase 1 = Nitric oxide synthase 1 (Rattus norvegicus, UniProt P29476)

| Ki [1] [µM] | Ki (Nitric oxide synthase 3) [µM] | Ki (Nitric oxide synthase 1) [µM] | SMILES |
| --- | --- | --- | --- |
| 77 | – | – | Cc1cc(N)nc(C[C@H]2CNC[C@H]2OCCNC(=O)Cc2cccc(F)c2)c1 (racemic) |
| 5.4 | 27 | – | Cc1cc(N)nc(C[C@H]2CNC[C@H]2NC(=O)CNCCc2cccc(F)c2)c1 (racemic) |
| 52 | – | 2.3 | Cc1cc(N)nc(C[C@H]2CNC[C@H]2OCC(=O)NCCc2cccc(F)c2)c1 (racemic) |
